According to patent publication US20220056149A1, “SINGLE-DOMAIN ANTIBODY-CYTOSINE DEAMINASE FUSION PROTEINS” (LUMOSA THERAPEUTICS, CO., LTD., priority 2018, published 2022):

Biological target: T1, hEGFR-Fc (Homo sapiens, UniProt P00533)
T1 construct: Fc; purchased Sino Biological
Assay: EGFR binding ELISA
Experimental: For the EGFR binding assay, ELISA plates were coated with hEGFR-Fc (Sino Biological) with concentration 1 μg/mL in coating buffer. Blocking was performed by incubating with blocking buffer (0.25% BSA, 0.05% Tween-20, 0.05% NaN3, 1 mM EDTA) for 2 hours. After blocking, the samples were serial diluted in blocking buffer and added to wells for binding 1 hour. Finally, the secondary antibodies (Rabbit anti-HIS-HRP) were diluted in buffer comprising 0.25% BSA and 0.05% Tween 20 for detection.

B1: VHH122-CD-H: anti-EGFR sdAb VHH122 fused to yeast cytosine deaminase, with HIS-tag (protein)
chain: EVQLQESGGGLVQAGDSLRLSCLVSGRSFNSYTMGWFRQAPGKEREFVAAILWSGPTTYYADSVKGRFTISRDNAKNTVYLQMNSLKPEDTAVYYCAAALGVLVLAPGNVYSYWGQGTQVTVSSGGGGSGGGGSGGGGSVTGGMASKWDQKGMDIAYEEAALGYKEGGVPIGGCLINNKDGSVLGRGHNMRFQKGSATLHGEISTLENCGRLEGKVYKDTTLYTTLSPCDMCTGAIIMYGIPRCVVGENVNFKSKGEKYLQTRGHEVVVVDDERCKKIMKQFIDERPQDWFEDIGEHHHHHH
binding to EGFR (ELISA): bind to EGFR
